{"source": "patent US9539222B2", "about": "“Methods to inhibit intracellular growth of bacteria and to treat bacteria-mediated diseases” (priority 2012, dated 2017)", "system": "Mycobacterium tuberculosis (MTB)", "assay": "Acute infection model of MTB in C57BL/6 mice, lung and spleen bacillary load (CFU)", "format": "in vivo", "conditions": "for lung bacillary load vs control: first experiment", "data": [{"molecule": "CN(C)C(=N)NC(=N)N.Cl", "note": "[Metformin, N,N-dimethyl imidodicarbonimidic diamide hydrochloride]", "values": [{"measurement": "lung bacillary load vs control", "setting": "250 mg/Kg oral, day 21 post-infection", "result": "not"}, {"measurement": "lung bacillary load vs control", "setting": "250 mg/Kg oral, day 35 post-infection", "result": "significantly less"}, {"measurement": "bacteria in the spleen compared to ethionamide alone", "setting": "500 mg/Kg Metformin and 15 mg/Kg ethionamide, day 35 post-infection", "result": "significantly less"}, {"measurement": "lung CFU vs control mice", "setting": "500 mg/Kg oral, another experiment (day 35)", "result": "less"}, {"measurement": "lung bacillary load vs control", "setting": "500 mg/Kg oral, day 21 and 35 post-infection", "result": "significantly less"}, {"measurement": "lung bacillary load, Metformin alone", "setting": "500 mg/Kg, ethionamide experiment, day 35, reduction equivalent to 10 mg/Kg ETH", "result": "decreased"}, {"measurement": "MTB CFU in the spleen compared to control mice", "setting": "250 or 500 mg/Kg oral, day 21 and 35 post-infection", "result": "significantly less"}]}]}
